Test results taken from PubChem BioAssay (NCI).
Several values for one entry are separate records, joined by “and”; a condition that tells them apart may be missing. Equal entries are not always repeated. The entries are a selection whose mix differs from that of the whole data set. Some of these compounds have results that are not shown, active ones among them.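 96-well plates, one dose, 48 hours. Percent growth reported; active if below 10.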 Activity calls are given as the source filed them.

The molecules below were run on SK-MEL-2 melanoma (assay: NCI-60 one-dose screen, 48 h (100 = growth as untreated, 0 = no growth, -100 = all killed)). Settings: 10 µM.

SMILES	growth
ClCCN(CCCl)Cc1cc(Cl)cc(Cl)c1	inactive: 103%
N#CC(C#N)=Cc1ccccc1Cl	inactive: 106%
ClCCN(CCCl)Cc1ccsc1Br	inactive: 106%
N#CC(C#N)=Cc1cccc(Br)c1	inactive: 107%
Fc1cccc(CN(CCCl)CCCl)c1	inactive: 102%
Cc1cc2nc(CN(CCCl)CCCl)[nH]c2cc1C	inactive: 83.1%
ClCCN(CCCl)C1c2ccccc2-c2ccccc21	inactive: 82.2%
CC(C)(C)N(CCCl)CCCl	inactive: 96.4%
N#CC(C#N)=Cc1ccc(Br)cc1	inactive: 111% and inactive: 101%
CCOc1ccc([N+](=O)[O-])cc1CN(CCCl)CCCl	inactive: 101%
CN(C)CCOC(=O)C(O)(c1ccccc1)c1ccccc1	inactive: 120%
ClCCN(CCCl)Cc1ccc(Cl)c(Cl)c1	inactive: 108%
CC(=O)CI	inactive: 107%
CCCN(CCCl)CCCl	inactive: 118%
BrCCN(CCBr)Cc1ccccc1	inactive: 109%
CCNCCCl	inactive: 124%
O=C(OCCN1CCCC1)C(O)(c1ccccc1)c1ccccc1	inactive: 94.8%
COc1ccc(N=C=S)cc1CN(CCCl)CCCl	inactive: 68.9%
ClCCN(CCCl)C1CCCCC1	inactive: 103%
CC[N+](C)(C)Cc1cccc(Cc2ccccc2)c1OC(=O)N(C)C	inactive: 126%
COc1ccc([N+](=O)[O-])cc1CN(CCCl)CCCl	inactive: 122%
ClCCCCCC(CCl)NCCCl (stereo unspecified)	inactive: 112%
COCc1c(CN(CCCl)CCCl)cnc(C)c1O	inactive: 110%
CN(CCBr)CCBr	inactive: 105%

The molecules below were run on EKVX NSCLC in the same assay as above. Settings: 10 µM.

SMILES	growth
N#CC(C#N)=Cc1cccc(Br)c1	inactive: 96.7%
Cc1cc2nc(CN(CCCl)CCCl)[nH]c2cc1C	inactive: 125%
ClCCN(CCCl)C1c2ccccc2-c2ccccc21	inactive: 97.9%
N#CC(C#N)=Cc1ccc(Br)cc1	inactive: 102%
CCOc1ccc([N+](=O)[O-])cc1CN(CCCl)CCCl	inactive: 97.2%
CN(C)CCOC(=O)C(O)(c1ccccc1)c1ccccc1	inactive: 114%
CC(=O)CI	inactive: 95.4%
BrCCN(CCBr)Cc1ccccc1	inactive: 87.2%
O=C(OCCN1CCCC1)C(O)(c1ccccc1)c1ccccc1	inactive: 104%
COc1ccc(N=C=S)cc1CN(CCCl)CCCl	inactive: 85.7%
ClCCN(CCCl)C1CCCCC1	inactive: 98.3%
CC[N+](C)(C)Cc1cccc(Cc2ccccc2)c1OC(=O)N(C)C	inactive: 98.1%
COc1ccc([N+](=O)[O-])cc1CN(CCCl)CCCl	inactive: 109%
ClCCCCCC(CCl)NCCCl (stereo unspecified)	inactive: 113%
COCc1c(CN(CCCl)CCCl)cnc(C)c1O	inactive: 110%

Each molecule was assayed on SN12C renal in the same assay as above. Settings: 10 µM.

SMILES	growth
ClCCN(CCCl)Cc1cc(Cl)cc(Cl)c1	inactive: 60.2%
N#CC(C#N)=Cc1ccccc1Cl	inactive: 99.4%
ClCCN(CCCl)Cc1ccsc1Br	inactive: 74.6%
N#CC(C#N)=Cc1cccc(Br)c1	inactive: 102%
Fc1cccc(CN(CCCl)CCCl)c1	inactive: 87.5%
Cc1cc2nc(CN(CCCl)CCCl)[nH]c2cc1C	inactive: 77.7%
ClCCN(CCCl)C1c2ccccc2-c2ccccc21	inactive: 93.6%
CC(C)(C)N(CCCl)CCCl	inactive: 98%
N#CC(C#N)=Cc1ccc(Br)cc1	inactive: 103% and inactive: 90.7%
CCOc1ccc([N+](=O)[O-])cc1CN(CCCl)CCCl	inactive: 93.5%
CN(C)CCOC(=O)C(O)(c1ccccc1)c1ccccc1	inactive: 106%
ClCCN(CCCl)Cc1ccc(Cl)c(Cl)c1	inactive: 100%
CC(=O)CI	inactive: 100%
CCCN(CCCl)CCCl	inactive: 99.1%
BrCCN(CCBr)Cc1ccccc1	inactive: 107%
CCNCCCl	inactive: 103%
O=C(OCCN1CCCC1)C(O)(c1ccccc1)c1ccccc1	inactive: 94.3%
COc1ccc(N=C=S)cc1CN(CCCl)CCCl	inactive: 52.5%
ClCCN(CCCl)C1CCCCC1	inactive: 86.9%
CC[N+](C)(C)Cc1cccc(Cc2ccccc2)c1OC(=O)N(C)C	inactive: 95.4%
COc1ccc([N+](=O)[O-])cc1CN(CCCl)CCCl	inactive: 97.7%
ClCCCCCC(CCl)NCCCl (stereo unspecified)	inactive: 53.3%
COCc1c(CN(CCCl)CCCl)cnc(C)c1O	inactive: 97.3%
CN(CCBr)CCBr	inactive: 92.4%

The molecules below were run on UO-31 renal in the same assay as above. Settings: 10 µM.

SMILES	growth
ClCCN(CCCl)Cc1cc(Cl)cc(Cl)c1	inactive: 71%
N#CC(C#N)=Cc1ccccc1Cl	inactive: 93.7%
ClCCN(CCCl)Cc1ccsc1Br	inactive: 80.5%
N#CC(C#N)=Cc1cccc(Br)c1	inactive: 95.5%
Fc1cccc(CN(CCCl)CCCl)c1	inactive: 82.3%
Cc1cc2nc(CN(CCCl)CCCl)[nH]c2cc1C	inactive: 78.4%
ClCCN(CCCl)C1c2ccccc2-c2ccccc21	inactive: 86.8%
CC(C)(C)N(CCCl)CCCl	inactive: 98%
N#CC(C#N)=Cc1ccc(Br)cc1	inactive: 92.7% and inactive: 85.5%
CCOc1ccc([N+](=O)[O-])cc1CN(CCCl)CCCl	inactive: 69%
CN(C)CCOC(=O)C(O)(c1ccccc1)c1ccccc1	inactive: 88.8%
ClCCN(CCCl)Cc1ccc(Cl)c(Cl)c1	inactive: 88.4%
CC(=O)CI	inactive: 90%
CCCN(CCCl)CCCl	inactive: 93.2%
BrCCN(CCBr)Cc1ccccc1	inactive: 93.4%
CCNCCCl	inactive: 89.6%
COc1ccc(N=C=S)cc1CN(CCCl)CCCl	inactive: 78%
ClCCN(CCCl)C1CCCCC1	inactive: 90.5%
CC[N+](C)(C)Cc1cccc(Cc2ccccc2)c1OC(=O)N(C)C	inactive: 85.1%
COc1ccc([N+](=O)[O-])cc1CN(CCCl)CCCl	inactive: 87.9%
ClCCCCCC(CCl)NCCCl (stereo unspecified)	inactive: 75.8%
COCc1c(CN(CCCl)CCCl)cnc(C)c1O	inactive: 94%
CN(CCBr)CCBr	inactive: 88.8%
